Where two headings read alike, the source gives them in different places.

Protein sequences, listed by entry. Tags and fused reporters are not part of them. Residues count along the entry.
UniProt P00519, whole entry, looked up: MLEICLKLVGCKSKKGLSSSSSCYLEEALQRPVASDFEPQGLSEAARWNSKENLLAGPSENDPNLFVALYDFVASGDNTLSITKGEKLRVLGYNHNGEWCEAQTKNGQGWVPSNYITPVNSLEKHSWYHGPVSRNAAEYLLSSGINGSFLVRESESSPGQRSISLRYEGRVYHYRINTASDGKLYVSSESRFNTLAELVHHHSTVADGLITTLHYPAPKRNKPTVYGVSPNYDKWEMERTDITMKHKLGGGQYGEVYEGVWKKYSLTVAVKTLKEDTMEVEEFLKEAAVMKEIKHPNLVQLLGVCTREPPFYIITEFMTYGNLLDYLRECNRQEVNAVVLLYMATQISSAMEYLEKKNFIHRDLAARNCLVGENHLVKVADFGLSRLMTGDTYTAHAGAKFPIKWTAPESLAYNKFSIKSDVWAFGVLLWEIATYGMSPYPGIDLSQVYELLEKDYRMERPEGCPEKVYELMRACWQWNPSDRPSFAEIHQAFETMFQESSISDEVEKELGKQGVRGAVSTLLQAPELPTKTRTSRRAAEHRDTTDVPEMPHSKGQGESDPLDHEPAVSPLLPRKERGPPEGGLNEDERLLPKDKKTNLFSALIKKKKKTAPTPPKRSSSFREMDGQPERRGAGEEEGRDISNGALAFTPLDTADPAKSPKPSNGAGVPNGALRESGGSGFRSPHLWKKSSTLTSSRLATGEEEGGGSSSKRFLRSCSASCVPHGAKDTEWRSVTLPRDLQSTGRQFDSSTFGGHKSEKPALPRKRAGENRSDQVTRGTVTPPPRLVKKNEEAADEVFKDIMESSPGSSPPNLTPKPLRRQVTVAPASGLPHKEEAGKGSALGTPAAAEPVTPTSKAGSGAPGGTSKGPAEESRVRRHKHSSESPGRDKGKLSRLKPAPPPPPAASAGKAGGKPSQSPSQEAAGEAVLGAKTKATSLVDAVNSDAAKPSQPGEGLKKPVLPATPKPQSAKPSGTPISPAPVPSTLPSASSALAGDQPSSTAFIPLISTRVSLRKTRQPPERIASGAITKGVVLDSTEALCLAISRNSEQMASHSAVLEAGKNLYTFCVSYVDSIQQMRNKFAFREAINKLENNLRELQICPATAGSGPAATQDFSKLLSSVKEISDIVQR
UniProt P00519, 242-493: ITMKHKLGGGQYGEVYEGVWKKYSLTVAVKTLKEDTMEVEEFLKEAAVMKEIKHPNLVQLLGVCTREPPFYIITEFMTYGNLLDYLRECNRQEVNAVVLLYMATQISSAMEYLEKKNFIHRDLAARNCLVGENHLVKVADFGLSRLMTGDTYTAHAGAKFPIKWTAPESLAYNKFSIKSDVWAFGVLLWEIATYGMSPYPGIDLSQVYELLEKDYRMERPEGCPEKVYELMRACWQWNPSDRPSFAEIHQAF
UniProt Q9BJF5, 1-507: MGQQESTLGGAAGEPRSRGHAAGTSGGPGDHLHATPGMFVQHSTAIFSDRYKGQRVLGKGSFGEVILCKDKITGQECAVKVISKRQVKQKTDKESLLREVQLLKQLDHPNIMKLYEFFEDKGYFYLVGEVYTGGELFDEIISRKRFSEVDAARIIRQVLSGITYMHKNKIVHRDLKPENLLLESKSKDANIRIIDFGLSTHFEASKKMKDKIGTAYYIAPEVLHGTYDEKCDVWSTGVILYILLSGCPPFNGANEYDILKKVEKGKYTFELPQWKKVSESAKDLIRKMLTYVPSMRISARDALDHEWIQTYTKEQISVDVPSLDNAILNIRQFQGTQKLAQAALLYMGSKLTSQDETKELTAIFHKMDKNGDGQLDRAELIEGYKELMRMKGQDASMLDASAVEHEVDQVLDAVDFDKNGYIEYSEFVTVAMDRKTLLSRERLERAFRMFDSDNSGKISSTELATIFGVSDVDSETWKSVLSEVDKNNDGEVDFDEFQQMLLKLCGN

Here are results for 13 compounds from patent US9765037B2 (dated 2017).

The target in one data set is SrcKD (Homo sapiens (Human), UniProt P12931). Kind of data set: Tyrosine kinase IC50, SrcKD. Particulars: read-out: IC50 (μM) SrcKD.
Data set [1] deals with P. falciparum NF-54 strain gametocytes. The class given is cell-based, Plasmodium falciparum.
The next data set is described as follows: in vitro. Particulars: mouse, microsomes.
In data set [2] the test system is human promyelocytic leukemia (HL-60). Put plainly: Growth inhibition of human cell line HL-60. The conditions noted are these: read-out: GI50 (μM) HL60.
Data set [3] deals with human lymphocyte (CRL8155). Put plainly: Growth inhibition of human cell line CRL8155. The conditions noted are these: read-out: GI50 (μM) CRL8155.
Data set [4] deals with colorectal carcinoma (HC 2998). Kind of data set: Growth inhibition of human cell line HC 2998. Particulars: read-out: GI50 (μM) HCC2998.
In a further data set the test system is glioma derived (SF539). Kind of data set: Growth inhibition of human cell line SF539. The conditions noted are these: read-out: GI50 (μM) SF539.
Another data set has as its target Abl3D (Homo sapiens, UniProt P00519). Kind of data set: Tyrosine kinase IC50, Abl3D. The conditions noted are these: read-out: IC50 (μM) Abl3D.
For data set [5], the target named is T1, TgCDPK1 (Toxoplasma gondii, UniProt Q9BJF5). Particulars: read-out: IC50 (μM) TgCDPK1.
Another data set deals with AblKD (Homo sapiens (Human), UniProt P00519). Put plainly: Tyrosine kinase IC50, AblKD. Particulars: read-out: IC50 (μM) AblKD.
Data set [6] has as its target T1, TgCDPK1. Kind of data set: biochemical.
The target in data set [7] is T1, TgCDPK1. Kind of data set: biochemical. The source holds these as a separate data set.

With `CCOc1ccc2cc(-c3nn(C4CCN(C)CC4)c4ncnc(N)c34)ccc2c1` [Compound 148], the IC50 – broadly, the concentration needed to halve the response being measured – at SrcKD came to 5.58 µM.
With `CCOc1ccc2cc(-c3nn(CC4CCNCC4)c4ncnc(N)c34)ccc2c1` [Compound 29, 3-(6-ethoxynaphthalen-2-yl)-1-(piperidin-4-ylmethyl)-1H-pyrazolo[3,4-d]pyrimidin-4-amine], in [1], the “sporozoite load in infected salivary glands, diminished relative to untreated controls” value is given as 86%. Further, the “suppression of P. falciparum exflagellation events, repeat experiment” value in data set [1] (0.3 μM) is on record as above 90%. Further, the half-life (usually the time in which the quantity being followed falls by half) in the data set “in vitro” was above 1 h.
On to `CCN1CCC(Cn2nc(Cc3cccc4ccccc34)c3c(N)ncnc32)CC1` [Compound 5n, 1-((1-ethylpiperidin-4-yl)methyl)-3-(naphthalen-1-ylmethyl)-1H-pyrazolo[3,4-d]pyrimidin-4-amine], for which the 50% growth inhibitory concentration (GI50) (in data set [2]; in [3]; in data set [4]; in the data set with glioma derived (SF539)) was above 10 µM each time.
Turning to `CC(C)n1nc(-c2cc3c(Cl)cccc3[nH]2)c2c(N)ncnc21` [Compound 26, 3-(4-chloro-1H-indol-2-yl)-1-isopropyl-1H-pyrazolo[3,4-d]pyrimidin-4-amine], at Abl3D, the IC50 was determined as 0.304 µM.
On to `CS(=O)(=O)N1CCC(n2nc(Cc3cccc4ccccc34)c3c(N)ncnc32)CC1` [Compound 5p, 1-(1-(methylsulfonyl)piperidin-4-yl)-3-(naphthalen-1-ylmethyl)-1H-pyrazolo[3,4-d]pyrimidin-4-amine], for which the concentration for 50% growth inhibition (GI50) (in [2]; in [3]; in data set [4]; with glioma derived (SF539)) was above 10 µM throughout.
As to `CC(C)n1nc(-c2ccc(Cl)c(Cl)c2)c2c(N)ncnc21` [Compound 7c, 3-(3,4-dichlorophenyl)-1-isopropyl-1H-pyrazolo[3,4-d]pyrimidin-4-amine], the GI50 (in [2]; in data set [3]; in [4]; with glioma derived (SF539)) was above 10 µM throughout.
Take `CC(C)(C)n1nc(-c2cccc3ccccc23)c2c(N)ncnc21` [Compound 1, 1-tert-butyl-3-(naphthalen-1-yl)-1H-pyrazolo[3,4-d]pyrimidin-4-amine]: the half-inhibitory concentration (IC50) at TgCDPK1 [5] came out at 1.62 µM.
As for `CC(C)n1nc(-c2cnc3ccccc3c2)c2c(N)ncnc21` [Compound 7t, 1-isopropyl-3-(quinolin-3-yl)-1H-pyrazolo[3,4-d]pyrimidin-4-amine], the GI50 (in [2]; in [3]; in [4]; in the data set with glioma derived (SF539)) was above 10 µM each time.
Turning to `CC(C)(C)n1nc(Cc2cccc3ccccc23)c2c(N)ncnc21` [Compound 5d, 1-tert-butyl-3-(naphthalen-1-ylmethyl)-1H-pyrazolo[3,4-d]pyrimidin-4-amine], the 50% inhibitory concentration (IC50) on SrcKD was 2.2 µM.
Consider `CC(C)(C)n1nc(-c2ccc3ccccc3c2)c2c(N)ncnc21` [Compound 2, 1-tert-butyl-3-(naphthalen-2-yl)-1H-pyrazolo[3,4-d]pyrimidin-4-amine], for which the GI50 (in data set [2]; in data set [3]; in data set [4]; in the data set with glioma derived (SF539)) was above 10 µM in each case.
`CC(C)n1nc(Cc2cccc3ccccc23)c2c(N)ncnc21` [Compound 3, 1-isopropyl-3-(naphthalen-1-ylmethyl)-1H-pyrazolo[3,4-d]pyrimidin-4-amine]: the GI50 (in [2]; in [3]; in [4]; in the data set on glioma derived (SF539)) was above 10 µM in each case.
Turning to `COc1ccc2cc(-c3nn(C(C)C)c4ncnc(N)c34)ccc2c1` [Compound 7q, 1-isopropyl-3-(6-methoxynaphthalen-2-yl)-1H-pyrazolo[3,4-d]pyrimidin-4-amine], the 50% inhibitory concentration (IC50) at AblKD was determined as 0.82 µM.
For the compound `CC(C)(C)n1nc(-c2cccc3ccccc23)c2c(N)ncnc21` [NA-PP1], the half-maximal inhibitory concentration (IC50) at TgCDPK1 [6] worked out at 0.484 µM; on TgCDPK1 [7] (Inhibitor IC50 values, TgCDPK1, KinaseGlo) it was 0.816 µM; against TgCDPK1 [7] (Wild type TgCDPK1 (IC50 in μM)) it was 0.989 µM.
